Results from PubChem BioAssay AID2071 (Sanford-Burnham Center for Chemical Genomics, 2009).
The entries are a selection whose mix differs from that of the whole data set. Active and inactive are the calls of the source. Rule as the data show it: active = inhibition mostly above about 24% (no sharp cut-off); inactive = mostly below about 32%.

Assay: NALP1 inflammasome inhibitors in reconstituted yeast, colorimetric, S. cerevisiae, triplicate retest (AID 2071)
Conditions: S. cerevisiae NALP1/ASC/caspase-1 growth, X-gal OD620, 72 h; at 10 µM; hits give high values

For `CCOc1ccc(C)cc1CN(CCCl)CCCl`, which inhibition is on record?
Its inhibition is inactive: 10.1%.

For `O=C(NCC1(N2CCCCC2)CCCCC1)c1ccc(F)cc1`, which inhibition is on record?
Its inhibition is inactive: 5.7%.

With `COc1ccc(NC2CCN(CCc3ccccc3)CC2)c(OC)c1` as the molecule, how does the inhibition read?
Its inhibition is inactive: 11.1%.

With `CCOC(=O)N1CCC(Nc2ccc(F)cc2)CC1` as the molecule, how does the inhibition read?
The inhibition was inactive: 8.9%.

For `COc1cc(C(=O)NCC2(N(C)C)CCCCC2)ccc1OC(F)F`, which inhibition is on record?
Its inhibition is inactive: 1.7%.

Which inhibition does the source give for `Cc1ccc(OCC(C)C)c(CN(CCCl)CCCl)c1` here?
Its inhibition is inactive: 17.1%.

Which inhibition does the source give for `COc1ccc(C(=O)NCC2(N3CCCCC3)CCCCC2)cc1` here?
Its inhibition is inactive: 13.4%.

With `COc1ccc(C(=O)NCC2(N3CCCCC3)CCCCC2)c(OC)c1OC` as the molecule, how does the inhibition read?
Its inhibition is inactive: -8.4%.

With `CC(C)(C)OC(=O)N1CCC(N(C(=O)c2ccccc2)c2ccc(F)cc2)CC1` as the molecule, how does the inhibition read?
The inhibition was inactive: 17.1%.

Which inhibition does the source give for `O=C(NCC1(N2CCCCC2)CCCCC1)c1ccc(=O)[nH]c1` here?
Its inhibition is inactive: -3.1%.

For `CSc1ccccc1C(=O)NCC1(N2CCCCC2)CCCCC1`, which inhibition is on record?
The inhibition was inactive: 26%.

Which inhibition does the source give for `Cc1cc(C)cc(N(C(=O)c2ccccc2)C2CCN(C(=O)OC(C)(C)C)CC2)c1` here?
The inhibition was inactive: -10.1%.

With `O=C(NCC1(N2CCOCC2)CCCCC1)c1cc2ccccc2o1` as the molecule, how does the inhibition read?
The inhibition was inactive: 8.5%.

With `N#CC1(Nc2ccccc2)CCN(Cc2ccccc2)CC1` as the molecule, how does the inhibition read?
Its inhibition is inactive: -1.4%.

With `O=C(OC1CN2CCC1CC2)C1c2ccccc2Oc2ccccc21` (stereo unspecified) as the molecule, how does the inhibition read?
Its inhibition is inactive: 7.2%.

With `CCOC(=O)N1CCC(Nc2ccc(OC)cc2)CC1` as the molecule, how does the inhibition read?
Its inhibition is inactive: 13.5%.

With `CC(C)c1ccc(NC2CCN(C(=O)OC(C)(C)C)CC2)cc1` as the molecule, how does the inhibition read?
The inhibition was inactive: 6.3%.

For `COc1ccc(CN(CCCl)CCCl)cc1Cl`, which inhibition is on record?
Its inhibition is inactive: 1.3%.

With `CN(C)c1cccc(C(=O)NCC2(N3CCCCC3)CCCCC2)c1` as the molecule, how does the inhibition read?
The inhibition was inactive: -18.4%.

Which inhibition does the source give for `COc1cc(OC)c(C(=O)NCC2(N(C)C)CCCCC2)cc1OC` here?
Its inhibition is inactive: 13.3%.

With `CCCOc1ccc(C(=O)NCC2(N(C)C)CCCCC2)cc1OC` as the molecule, how does the inhibition read?
Its inhibition is inactive: -90%.

Which inhibition does the source give for `O=C(NCC1(N2CCCCC2)CCCCC1)c1ccc(OC(F)F)cc1` here?
The inhibition was inactive: 29.4%.

For `N#CC1(Nc2ccccc2)CCN(CCc2ccccc2)CC1`, which inhibition is on record?
Its inhibition is inactive: -2.2%.

For `O=C(NCC1(N2CCCCC2)CCCCC1)c1cccc([N+](=O)[O-])c1`, which inhibition is on record?
The inhibition was inactive: -18.3%.

With `O=C(NCC1(N2CCCCC2)CCCCC1)c1cccc(C(F)(F)F)c1` as the molecule, how does the inhibition read?
The inhibition was inactive: 1.2%.

With `COc1cc(C(=O)NCC2(N3CCCCC3)CCCCC2)ccc1OC(F)F` as the molecule, how does the inhibition read?
The inhibition was inactive: 5.1%.

For `O=C(NCC1(N2CCOCC2)CCCCC1)c1cc(=O)[nH]c2ccccc12`, which inhibition is on record?
Its inhibition is active: 42.8%.

Which inhibition does the source give for `CN1CCN(CCOC(=O)C(O)(c2ccccc2)c2ccccc2)CC1` here?
The inhibition was inactive: 28.9%.

For `COc1ccc(NC2CCN(C(=O)OC(C)(C)C)CC2)cc1`, which inhibition is on record?
The inhibition was inactive: -0.1%.

For `N#Cc1ccc(C(=O)NCC2(N3CCCCC3)CCCCC2)cc1`, which inhibition is on record?
Its inhibition is inactive: 8.6%.

With `CC(C)(C)OC(=O)N1CCC(N(C(=O)c2ccccc2)c2ccc(Cl)cc2)CC1` as the molecule, how does the inhibition read?
Its inhibition is inactive: -21.1%.

For `CN(C)C1(CNC(=O)c2cccc(C#N)c2)CCCCC1`, which inhibition is on record?
The inhibition was inactive: 9%.

For `c1ccc(CN2CCC(Nc3ccccc3)CC2)cc1`, which inhibition is on record?
The inhibition was inactive: 17.1%.

Which inhibition does the source give for `CCCN1CCC(Nc2cc(OC)cc(OC)c2)CC1` here?
The inhibition was inactive: 11%.

With `COc1ccc(C(=O)NCC2(N3CCOCC3)CCCCC2)cc1OC` as the molecule, how does the inhibition read?
Its inhibition is inactive: 0.7%.

For `CCOC(=O)N1CCC(Nc2ccc(C)cc2)CC1`, which inhibition is on record?
The inhibition was inactive: 5.4%.

For `N/C(=N\O)c1c(N)no[n+]1[O-]`, which inhibition is on record?
Its inhibition is inactive: 21.3%.

For `O=C(OC1CN2CCC1CC2)C1c2ccccc2C=Cc2ccccc21` (stereo unspecified), which inhibition is on record?
The inhibition was inactive: 12%.

Which inhibition does the source give for `CCOc1ncccc1C(=O)NCC1(N2CCOCC2)CCCCC1` here?
The inhibition was inactive: -9%.

Which inhibition does the source give for `CN1CCC(Nc2ccc(F)c(Cl)c2)CC1` here?
The inhibition was inactive: 3.2%.

With `CC(C)(C)OC(=O)N1CCC(Nc2ccccc2)CC1` as the molecule, how does the inhibition read?
The inhibition was inactive: -4.7%.

For `O=C(O)C1(Nc2ccccc2)CCN(Cc2ccccc2)CC1`, which inhibition is on record?
The inhibition was inactive: 3.8%.

For `CCCOc1ccc(C(=O)NCC2(N(C)C)CCCCC2)cc1`, which inhibition is on record?
The inhibition was inactive: 10.4%.

Which inhibition does the source give for `COc1cc(OC)cc(C(=O)NCC2(N3CCOCC3)CCCCC2)c1` here?
The inhibition was inactive: 7.8%.

Which inhibition does the source give for `COc1cccc(C(=O)N(c2cc(C)cc(C)c2)C2CCN(C(=O)OC(C)(C)C)CC2)c1` here?
The inhibition was inactive: 13.7%.

Which inhibition does the source give for `CCC(CO)(C(=O)OC1CN2CCC1CC2)c1ccccc1` (stereo unspecified) here?
The inhibition was inactive: -8.2%.

For `CCCOc1ccc(C)cc1CN(CCCl)CCCl`, which inhibition is on record?
Its inhibition is inactive: 1.3%.

With `COc1cc(OC)cc(C(=O)NCC2(N3CCCCC3)CCCCC2)c1` as the molecule, how does the inhibition read?
The inhibition was inactive: 22%.

For `Fc1ccccc1NC1CCN(Cc2ccccc2)CC1`, which inhibition is on record?
The inhibition was inactive: 9.3%.

Which inhibition does the source give for `CCN1CCC(Nc2cccc(F)c2)CC1` here?
Its inhibition is inactive: 45.9%.

For `CN(C)c1ccc(C(=O)NCC2(N3CCCCC3)CCCCC2)cc1`, which inhibition is on record?
Its inhibition is inactive: 5.8%.
